Amino acid sequences for entries named in this document (tags omitted). A change or cut given only in a name is not applied to a line headed by its entry.
UniProt Q9HC16: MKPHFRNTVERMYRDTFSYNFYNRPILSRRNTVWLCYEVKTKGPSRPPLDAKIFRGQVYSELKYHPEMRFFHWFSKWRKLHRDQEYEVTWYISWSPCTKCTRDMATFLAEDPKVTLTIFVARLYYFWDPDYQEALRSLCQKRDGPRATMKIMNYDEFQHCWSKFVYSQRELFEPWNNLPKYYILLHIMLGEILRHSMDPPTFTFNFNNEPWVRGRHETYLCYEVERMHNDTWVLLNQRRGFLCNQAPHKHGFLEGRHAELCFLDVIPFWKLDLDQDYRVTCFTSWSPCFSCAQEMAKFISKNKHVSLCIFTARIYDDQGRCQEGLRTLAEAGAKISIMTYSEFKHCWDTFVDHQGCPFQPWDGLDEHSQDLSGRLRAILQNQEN

In patent publication US20150111836A1, “CELLULAR APOBEC3 PROTEINS AND MODULATORS THEREOF FOR REGULATING DNA REPAIR PROCESSES AND TREATING PROLIFERATIVE DISEASES” (priority 2012, published 2015):

Assays:
A3G [1] = biological target: T1, A3G (Homo sapiens, UniProt Q9HC16); format: biochemical; conditions: ssDNA pre-incubated with RPA at sub-stoichiometric concentrations, FIG. 5D
T1 construct: Myc (C); His6 (C); made in house; host or cells: 293T cells (human embryonic kidney), transfected with pcDNA3.1-A3GMyc-His6, Ni-NTA purified
Procedure: Deaminase activity of purified enzyme and virion-associated A3G protein was examined as previously described. Briefly, A3G deamination reactions were performed in a total volume of 10 μl in 25 mM Tris, pH 7.0, and 0.01-1 fmol single-stranded (ss) deoxyoligonucleotide substrate at 37° C. The reaction was terminated by heating to 95° C. for 5 min. One μl of the reaction mixture was used for PCR amplification performed in 20 μl buffer S, using the following program: 1 cycle at 95° C. for 3 min, followed by 30 cycles of annealing at 61° C. for 30 s and denaturing at 94° C. for 30 s. Aliquots of the PCR products (10 μl) were incubated with Eco147I restriction enzyme for 1 h at 37° C. Completion of the restriction reaction was verified by using positive-control substrate containing CCU instead of CCC. Restriction-reaction products were loaded onto 14% gels and separated by PAGE. Gels were stained with SYBR gold nucleic acid stain diluted 1:10,000 in 0.5× Tris-Borate-EDTA buffer (TBE, pH 7.8), visualized by UV light (312 nm), captured by an Olympus C-5050 charge-coupled device (CCD) camera and analyzed by optical density (OD) scan using the TINA2.0 densitometry software. Assessment of A3G entrapped in virions was carried out with concentrated viruses stocks of 3-5 μg of p24/μl) suspended in PBS containing Triton X-100 at final concentration of 0.1% (vv) and 50 μg/ml RNase A (Sigma-Aldrich). […]

A3G [2] = biological target: T1, A3G; experiment: A3G multimer disassembly on ssDNA in the presence of RPA (AFM, EMSA); conditions: A3G 1 min with ssDNA, then 29 min with RPA, in ice, FIG. 5B
Procedure: AFM imaging was performed at room temperature using a multimode scanning probe microscope with a Nanoscope 3A controller. AFM images were recorded on freshly cleaved mica surfaces. The mica surfaces were activated with 5 mM MgCl for 1 min and washed with distilled water. For binding assays, purified A3G or RPA and ssDNA were incubated on ice in buffer containing 25 mM Tris (pH 7) in 10 μl reaction volume. Samples were deposited on the mica surface for 1.5 minutes, and washed with distilled water. Images were taken with NSC 15 AFM tips using the tapping mode at their resonant frequency. The images were analyzed with WSxM SPIP software. Stoichiometry of bound A3G proteins was calculated by the flooding option, assuming a monomeric volume of approximately 60 nm^3.
SC (10 pmol) was 3′ labeled with dATP-biotin using 10 u terminal deoxynucleotidyl transferase (NEB) in NEBuffer 4 (NEB) supplemented with 0.25 mM CoCl2 and 10 μM dATP-biotin (Invitrogen). Labeled oligos (200 fmol) were incubated with A3G or RPA for 8 or 30 mM, respectively, at room temperature, in EMSA buffer: 50 mM Tris (pH 7.0), 50 mM NaCl, 0.1 mg/mL BSA and 10% glycerol, in 10 μL, reaction volume. Samples were resolved by 6% native PAGE, transferred to a Hybond N nylon membrane (GE Healthcare) using a semi-dry transfer apparatus (Biorad) and UV-crosslinked (302 nm) for 15 min. […]

[3] = test system: SC or SU oligonucleotides (80 nt); experiment: Electrophoretic mobility shift assay (EMSA) of ssDNA binding; conditions: oligonucleotides (80 nt) with a single dU or dC, FIG. 10B
Procedure: SC (10 pmol) was 3′ labeled with dATP-biotin using 10 u terminal deoxynucleotidyl transferase (NEB) in NEBuffer 4 (NEB) supplemented with 0.25 mM CoCl2 and 10 μM dATP-biotin (Invitrogen). Labeled oligos (200 fmol) were incubated with A3G or RPA for 8 or 30 mM, respectively, at room temperature, in EMSA buffer: 50 mM Tris (pH 7.0), 50 mM NaCl, 0.1 mg/mL BSA and 10% glycerol, in 10 μL, reaction volume. Samples were resolved by 6% native PAGE, transferred to a Hybond N nylon membrane (GE Healthcare) using a semi-dry transfer apparatus (Biorad) and UV-crosslinked (302 nm) for 15 min. Following blocking with Casein blocking buffer (Sigma), the membrane was treated with horseradish peroxidase conjugated sterptavidine (Jackson) for 20 mM at RT, washed 6 times with TBS (pH 7.4) and visualized by enhanced chemiluminescence. Alternatively, complementary non-biotinylated oligonucleotides were annealed by heating to 95° C. and slow cooling to room temperature for 1 h. Following incubation with A3G, samples were resolved by PAGE, stained with SYBR Gold (Molecular Probes) and visualized by UV light (302 nm).

RPA: ubiquitous nuclear heterotrimer required for DNA replication and involved in all major DNA repair pathways
inhibition of A3G cytidine deaminase activity by RPA (A3G [1]): dose-dependent inhibition | effect on A3G multimer disassembly (A3G [2]): inhibited A3G multimer disassembly | binding to SU relative to SC [3]: twofold more efficient
